# Data reported in PubChem BioAssay AID2112 (National Center for Advancing Translational Sciences (NCATS), 2009).
# Values joined by “and” are separate entries in the source; they are usually repeats but may differ in a detail not shown here. Equal entries are not always repeated. The list shows a part of the results, in another mix than the full data. Active and inactive are the calls of the source. Calls come from the whole dose curve; as a rule, active = well fitted inhibition curve with a large enough effect; inconclusive = small, poorly fitted or top-dose-only effect, or effect the other way, or another doubt; inactive = no such curve, though single readings can be large or run the other way.
# Molecular target: Lysosomal alpha-glucosidase (Homo sapiens) (UniProt P10253)
# Experiment: qHTS Assay for Inhibitors and Activators of Human alpha-Glucosidase From Spleen Homogenate;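 note: 0% = enzyme with vehicle and -100% = no enzyme basal signal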
# Conditions: 4-MU-alpha-glucoside fluorescence
# From the text: NIH Chemical Genomics Center [NCGC] NIH Molecular Libraries Probe Production Centers Network [MLPCN] MLPCN Grant: R03 MH084841-01 Assay Submitter (PI): Wei Zheng NCGC Assay Overview: Alpha-glucosidase is responsible for the hydrolysis of terminal, non-reducing 1,4-linked alpha-D-glucose residues, which releases alpha-D-glucose. It is a lysosomal hydrolase that is required for the degradation of a small percentage (1-3%) of cellular glycogen in humans. Deficiency of this enzyme results in glycogen-storage disease type II (GSDII), also referred to as Pompe disease, an autosomal recessive disorder. Structurally normal glycogen is accumulated in the lysosomes and cytoplasm in affected patients, primarily in muscle tissues. Excessive glycogen storage within lysosomes may interrupt normal functioning of other organelles and leads to cellular injury. In turn, this leads to enlargement and dysfunction of the entire organ involved (eg: cardiomyopathy and muscle weakness). It has been reported that the improper folding and trafficking of alpha-glucosidase resulting from genetic mutations may account for a significant number of Pompe patients. […] We optimized this alpha-glucosidase assay in 1536-well plate format for identification of novel small molecule inhibitors or activators with structures other than the sugar analogs in order to develop new pharmacological chaperones. In particular, this assay is directed towards discovering compounds active in a more natural setting, tissue homogenate, that may have been missed by screens of the purified enzyme under more stringent conditions.
# NCGC Assay Protocol Summary: This is a fluorogenic enzyme assay with 4-methylumbelliferyl-alpha-D-glucopyranoside as the substrate and human spleen homogenate containing alpha-glucosidase as the enzyme preparation. Upon hydrolysis of this fluorogenic substrate, the resulting product, 4-methylumbelliferone (which excites at 365 nm and emits at 440 nm) can be detected by a fluorescence plate reader. Data were normalized to the controls for basal activity (without enzyme) and 100% activity (with enzyme). The AC50 values were determined from concentration-response data modeled with the standard Hill equation. Assay buffer: 50 mM citric acid (titrated with potassium phosphate to pH 5.0), 0.01% Tween-20 (pH 5.0 is an optimal condition for this enzyme assay) 1536-well assay protocol for the alpha-glucosidase from human spleen homogenate: (1) Add 2 ul/well spleen homogenate (1 ug) (2) Add 23 nL compounds in DMSO solution. The final titration was 0.5 nM to 58 uM. (3) Add 2 ul of substrate (1 mM final) (4) Incubate at 37 C for 40 min (5) Add 2 ul stop solution (1M NaOH and 1M Glycine mixture, pH 10) (6) Detect the assay plate in a ViewLux plate reader (PerkinElmer) with Ex=365 nm and Em=440nm. Keywords: Alpha-glucosidase, Pompe Disease, pharmacological chaperone, chaperone therapy, high throughput screening, alpha-glucosidase inhibitor, MLSMR, MLSCN, NIH Roadmap, qHTS and NCGC
# [1] = at 79.9 µM (top of the series) unless noted
smiles,measurement,setting,value
COP1(=S)c2c(C)nn(CCC#N)c2N=C(c2ccc(F)cc2)N1C (stereo unspecified),"activity change, negative = inhibition",[1],inactive: -8.87%
O=C(COc1ccccc1)OC1CN2CCC1CC2 (stereo unspecified),"activity change, negative = inhibition",[1],inactive: -5.16%
CCOC(=O)c1ccc(NC(=O)C(C)(CCl)SC)cc1 (stereo unspecified),"activity change, negative = inhibition",[1],inactive: 0.489%
CCC(C)N(CC(C)C)C(=S)SC(NC(C)=O)C(Cl)(Cl)Cl (stereo unspecified),"activity change, negative = inhibition",[1],inactive: -1.95%
CCOC(=O)Nc1ccc([As](=O)(O)O)c(O)c1,"activity change, negative = inhibition",[1],inactive: -6.55%
Cc1cc(SC(NC(=O)c2ccccc2)C(Cl)(Cl)Cl)nc(C(C)C)n1 (stereo unspecified),"activity change, negative = inhibition",[1],inactive: -3.39%
CCOC(=O)Nc1cccc([As](=O)(O)O)c1,"activity change, negative = inhibition",[1],inactive: 2.01%
O=P(Nc1ccccn1)(c1cccc2ccccc12)c1cccc2ccccc12,"activity change, negative = inhibition",[1],inactive: -0.754%
Cc1cc(SC(NC=O)C(Cl)(Cl)Cl)ncn1 (stereo unspecified),"activity change, negative = inhibition",[1],inactive: 7.99%
CN(N=O)C(=N)N[N+](=O)[O-],"activity change, negative = inhibition",[1],inactive: -0.359%
O=[N+]([O-])c1ccc(Nc2ccc(Oc3ccc([N+](=O)[O-])cc3[N+](=O)[O-])cc2)c([N+](=O)[O-])c1,"activity change, negative = inhibition",[1],inactive: 10.8%
O=[As](O)(c1ccc(O)cc1)c1ccccc1O,"activity change, negative = inhibition",[1],inactive: -5.14%
C[As](=O)(O)c1cccc(C(=O)O)c1,"activity change, negative = inhibition",[1],inactive: 1.74%
Cc1ccc(OP(=O)(Nc2ccc([N+](=O)[O-])cn2)Oc2ccc(C)cc2)cc1,"activity change, negative = inhibition",[1],inactive: 2.58%
Cc1ccc2nc3c(c(C)c2c1)CC(C(Cl)Cl)S3 (stereo unspecified),"activity change, negative = inhibition",[1],inactive: 1.74%
ClCCSc1nnc(-c2cccnc2)o1,"activity change, negative = inhibition",[1],inactive: 5.66%
CC(C)c1ccc(OP(=O)(Nc2ccccn2)Oc2ccccc2F)cc1 (stereo unspecified),"activity change, negative = inhibition",[1],inactive: -5.89%
CC(C)NC(=O)NP(=O)(Oc1ccccc1)Oc1ccccc1,"activity change, negative = inhibition",[1],inactive: -1.46%
CCN(CC)C(=S)SC(NC=O)C(Cl)(Cl)Cl (stereo unspecified),"activity change, negative = inhibition",[1],inactive: 6.57%
O=[N+]([O-])c1cc([N+](=O)[O-])c(-c2ccn[nH]2)s1,"activity change, negative = inhibition",[1],inactive: 1.76%
Cc1c2c(nc3ccccc13)SC(C(Cl)Cl)C2 (stereo unspecified),"activity change, negative = inhibition",[1],inactive: -16.6%
O=C(OC1CN2CCC1CC2)C12CC3CC(CC(C3)C1)C2 (stereo unspecified),"activity change, negative = inhibition",[1],inactive: -4.36%
Cc1cc(=O)[nH]c(N[N+](=O)[O-])n1,"activity change, negative = inhibition",[1],inactive: 2.72%
COc1ccc2nc(NP(=O)(c3ccccc3)c3ccccc3)sc2c1,"activity change, negative = inhibition",[1],inactive: -8.34%
COc1cc(I)ccc1[As](=O)(O)O,"activity change, negative = inhibition",[1],inactive: -1.09%
COc1ccc(N/C(=N/P(=O)(N2CCOCC2)N2CCOCC2)N2CCOCC2)cc1,"activity change, negative = inhibition",[1],inactive: 8.31%
O=C(OC1CN2CCC1CC2)c1ccc(Cl)cc1 (stereo unspecified),"activity change, negative = inhibition",[1],inactive: 1.19%
CN(C(=O)Cc1ccc(Cl)c(Cl)c1)[C@@H]1CC[C@]2(CCCO2)C[C@H]1N1CCCC1,"activity change, negative = inhibition",[1],inactive: -2.06% and inactive: 8.22%
O=[As](O)(O)c1cccnc1,"activity change, negative = inhibition",[1],inactive: -4.59%
COc1cc(C(=O)NCC2(N3CCOCC3)CCCCC2)cc(Cl)c1OC(C)C,"activity change, negative = inhibition",[1],inactive: 2.82%
Cc1cccc(OCC(=O)OC2CN3CCC2CC3)c1 (stereo unspecified),"activity change, negative = inhibition",[1],inactive: 5.87%
O=[As](O)(c1cccc(O)c1)c1cccc(O)c1,"activity change, negative = inhibition",[1],inactive: -0.212%
Cc1ccc(NCCc2c([N+](=O)[O-])cc([N+](=O)[O-])cc2[N+](=O)[O-])cc1,"activity change, negative = inhibition",[1],inactive: -14.1%
Nc1cccc2c([As](=O)(O)O)cccc12,"activity change, negative = inhibition",[1],inactive: 3.35%
CCCOP(=S)(Nc1nc(N)cc(=O)[nH]1)OCCC,"activity change, negative = inhibition",[1],inactive: -0.844%
COc1cc(C2NCCC3(OCCO3)C2(C)C)cc(OC)c1OC (stereo unspecified),"activity change, negative = inhibition",[1],inactive: 0.541%
CCOP(=O)(Nc1cccc2ccccc12)OCC,"activity change, negative = inhibition",[1],inactive: -0.443%
CCOP1(=S)c2c(C)nn(CCC#N)c2N=C(c2ccccc2F)N1C (stereo unspecified),"activity change, negative = inhibition",[1],inactive: -5.56%
O=P(Nc1nccs1)(Oc1ccccc1)Oc1ccccc1,"activity change, negative = inhibition",[1],inactive: 0.0744%
O=P(Nc1nccs1)(c1ccccc1)c1nc2ccccc2s1 (stereo unspecified),"activity change, negative = inhibition",[1],inactive: 2.41%
CS(=O)(=O)c1cc([N+](=O)[O-])c2no[n+]([O-])c2c1,"activity change, negative = inhibition",[1],inactive: 0.837%
Nc1ccccc1[As](=O)(O)c1ccccc1,"activity change, negative = inhibition",[1],inactive: 2.69%
O=C(O)COc1ccc([As](=O)(O)O)cc1[N+](=O)[O-],"activity change, negative = inhibition",[1],inactive: -9.61%
NC(=O)Nc1ccc([As](=O)(O)O)cc1,"activity change, negative = inhibition",at 29.1 µM (top of the series),inactive: -4.6%
same,"activity change, negative = inhibition",at 79.9 µM (top of the series),inactive: -2.32% and inactive: 8.38%
O=[N+]([O-])CC(O)c1ccc([N+](=O)[O-])cc1 (stereo unspecified),"activity change, negative = inhibition",[1],inactive: -1.47%
CCOP1(=S)c2c(C)nn(CCC#N)c2N=C(c2ccc(F)cc2)N1C (stereo unspecified),"activity change, negative = inhibition",[1],inactive: 1.89%
O=[N+]([O-])c1ccc2c(c1)nnn2O,"activity change, negative = inhibition",[1],inactive: 5.42%
Cc1nn(-c2ccccc2)c2c1P(=O)(N1CCOCC1)N(C)C(c1ccccc1)=N2 (stereo unspecified),"activity change, negative = inhibition",[1],inactive: -1.81%
CC1CCC(C(C)C)C(OP(=O)(Nc2ccccn2)c2ccccc2)C1 (stereo unspecified),"activity change, negative = inhibition",[1],inactive: -6.66%
CN(C)C1(CNC(=O)c2ccc(S(C)(=O)=O)cc2)CCCCC1,"activity change, negative = inhibition",[1],inactive: -5.82%
